Rev-erbA mod: modulators of Rev-erb alpha DNA binding, primary screen, biochemical, FITC-DNA, fluorescence polarization, uHTS; Nuclear receptor subfamily 1 group D member 1 (Homo sapiens), P20393; Rev-erbα–FITC-DNA binding, 90 min; activity, % at 10 µM; 0.79% of 370,000 active; AID 1259318, 2017;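 active means activity above about 14%, limit read from the data; passing the limit was not always enough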
ERp5 inh: inhibitors of ERp5-driven insulin aggregation, primary screen, biochemical, turbidity, absorbance 650 nm, single point; Protein disulfide-isomerase A6 (Homo sapiens), Q15084; 90 min; inhibition, % at 9.99 µM; 0.05% of 350,000 active;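 active means mean replicate inhibition above about 25%, with every replicate also reaching it, limit read from the data, passing the limit was not always enough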
SMARCA2 act: SMARCA2 (BRM) function activators, primary screen, cell-based, luminescence, high throughput; MG213 cells, MMTV-luciferase reporter, dexamethasone, overnight; activation, % at 9.1 µM; 1% of 370,000 active; in the data active means activation above about 7.8%
PDI turbidity: inhibitors of human PDI, primary screen, biochemical, turbidity, single point, plate reader | Protein disulfide-isomerase (Homo sapiens), P07237 | PDI insulin aggregation turbidity, A650, 90 min | inhibition, % at 10 µM | 0.052% of 350,000 active | AID 588391, 2011;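 active means mean inhibition across replicates of 30% or more, whatever share of single replicates reach that level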
INS-1E GSIS act: GLuc luminescence reporter in INS-1E cells, primary screen for activators of glucose-dependent secretion of insulin; activation, % at 16.6 µM; INS-1E GLuc reporter insulin secretion, 2-3 h; 0.61% of 370,000 active;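 active means lowest replicate activation of at least 40%, so every replicate reaches that level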
UUG fidelity: yeast start codon fidelity modulation | S. cerevisiae UUG-firefly luciferase reporter, luminescence/redox ratio | activity score, % at 18.7 µM | 0.13% of 350,000 active | AID 602363;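 active means replicate mean at a twofold rise or more, about +100% in these data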;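 further: firefly luciferase made from a UUG start codon reports start codon fidelity; reporter light over untreated wells divided by growth signal over untreated wells; some hits fall short of that in this replicate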
Each line names hits and unclear results; the compound was inactive in the other large screens. Rows were chosen to be rich in hits. Some 2.1% of all compounds tested hit in one or more screens of this group.

Cc1ccc(S(=O)(=O)N(c2cccc(C(F)(F)F)c2)C2C=CS(=O)(=O)C2)cc1 (stereo not drawn)	none (no result: UUG fidelity)
CCc1ccc(N(C2C=CS(=O)(=O)C2)S(=O)(=O)c2ccccc2)cc1 (stereo not drawn)	INS-1E GSIS act 86.2 (no result: ERp5 inh, UUG fidelity)
Cc1cc(=O)oc2cc(OCC(=O)NC3CCN(Cc4ccccc4)CC3)ccc12	none
CCCc1cc(=O)oc2cc(OCC(=O)NC3CCN(Cc4ccccc4)CC3)ccc12	INS-1E GSIS act 44.0
C[C@@H]1C=CCCO[C@]12C(=O)N(CC1CC1)c1ccccc12	none (no result: PDI turbidity, UUG fidelity)
CCOC(=O)CN1C(=O)[C@]2(OCCC=C[C@H]2C)c2ccccc21	INS-1E GSIS act 350.8 (no result: PDI turbidity, UUG fidelity)
C[C@@H]1CCCCO[C@@H](CN(C)C(=O)NC2CCCCC2)[C@@H](C)CN([C@@H](C)CO)C(=O)c2cc(NC(=O)Nc3cccc4ccccc34)ccc2O1	none (no result: Rev-erbA mod, SMARCA2 act, PDI turbidity)
COc1ccc(-c2cn3cc(Br)cnc3n2)cc1	SMARCA2 act 7.9
CC1CCC/C(=C\c2ccc(O)cc2)C1=O (stereo not drawn)	none (no result: INS-1E GSIS act)
CN(C)CC1CC/C(=C\c2ccc(O)cc2)C1=O (stereo not drawn)	PDI turbidity 86.6 (no result: UUG fidelity)
COC(=O)CC1OCC=C2CN3CCC45C6=CC(=O)C(=O)C([N+](=O)[O-])=C6NC4C1C2CC35 (stereo not drawn)	PDI turbidity 85.0
Cc1noc(C)c1NC(=O)N(C)C[C@H]1Oc2ccc(NS(=O)(=O)c3c(C)noc3C)cc2C(=O)N([C@@H](C)CO)C[C@@H]1C	none (no result: Rev-erbA mod, ERp5 inh, SMARCA2 act, PDI turbidity, UUG fidelity)
Cc1ccc(C(=O)N/C(=C\c2cccs2)C(=O)NCc2cccnc2)cc1	none (no result: ERp5 inh)
Cc1ccc(C(=O)N/C(=C\c2ccco2)C(=O)NCc2cccnc2)cc1	SMARCA2 act 8.0 (no result: ERp5 inh)
Cc1ccc(C(=O)N/C(=C/c2ccco2)C(=O)NCc2ccco2)cc1	INS-1E GSIS act 114.9
CC1(C)C2CC[C@]3(C)C(C(=O)C=C4[C@@H]5C[C@@](C)(C(=O)O)CC[C@]5(C)CC[C@]43C)[C@@]2(C)CC[C@@H]1OC(=O)CCC(=O)O (stereo partly drawn)	none (no result: ERp5 inh, SMARCA2 act, PDI turbidity, INS-1E GSIS act, UUG fidelity)
CN(c1ccccc1)c1nc(N)c([N+](=O)[O-])c(N2CCCC2)n1	none
CN(c1ccccc1)c1nc(N)c([N+](=O)[O-])c(N2CCOCC2)n1	INS-1E GSIS act 45.3 (no result: UUG fidelity)
O=C(NNC(=O)c1cc2cc3ccccc3nc2s1)c1cccc(C(F)(F)F)c1	INS-1E GSIS act 75.1 (no result: ERp5 inh)
O=C(NNS(=O)(=O)c1ccccc1)c1cc2cc3ccccc3nc2s1	none (no result: ERp5 inh, INS-1E GSIS act, UUG fidelity)
Cc1cc(OCC(O)CNC(C)c2ccccc2)ccc1C(C)C (stereo not drawn)	INS-1E GSIS act 379.3
COC(=O)c1c(C)[nH]c(/C=N/Nc2ccccc2)c1C	SMARCA2 act 14.7 (no result: INS-1E GSIS act)
CN(c1ccccc1)c1nc(N)c(C#N)c(CC#N)c1C#N	INS-1E GSIS act 66.2 (no result: ERp5 inh)
C[C@@H]1CN([C@@H](C)CO)C(=O)c2cc(NC(=O)Cn3cnnn3)ccc2O[C@H]1CN(C)Cc1ccc(Cl)c(Cl)c1	none (no result: Rev-erbA mod, SMARCA2 act, PDI turbidity)
CC(C)NC(=O)C1(C)CN(S(C)(=O)=O)CC(=O)N1CCCN1CCOCC1 (stereo not drawn)	INS-1E GSIS act 43.7 (no result: PDI turbidity, UUG fidelity)
Cc1noc(C)c1NC(=O)Nc1ccc2c(c1)CC(=O)N([C@@H](C)CO)C[C@@H](C)[C@@H](CN(C)S(=O)(=O)c1c(C)noc1C)O2	none (no result: Rev-erbA mod, SMARCA2 act, PDI turbidity)
COc1ccc(C2=Nn3c(nnc3-c3ccccc3)SC2)cc1OC	none
CCCc1nnc2n1N=C(c1ccc(OC)c(OC)c1)CS2	INS-1E GSIS act 106.3 (no result: UUG fidelity)
COc1ccc(OCc2nnc3n2N=C(c2ccc(C)cc2)CS3)cc1	none (no result: PDI turbidity)
COc1ccc(OCc2nnc3n2N=C(c2ccc(OC)cc2)CS3)cc1	INS-1E GSIS act 44.7 (no result: PDI turbidity)
CCOC(=O)c1cccc(-c2ccc(C=O)o2)c1	INS-1E GSIS act 48.5
COC(=O)C1=C(C)N(Cc2ccccc2)C(=NCc2cccc(C(F)(F)F)c2)N[C@H]1c1cccc(F)c1	none
COC(=O)C1=C(C)N(Cc2cccc(C(F)(F)F)c2)C(=NCc2ccc(OC)cc2)NC1c1ccccc1 (stereo not drawn)	none (no result: PDI turbidity, INS-1E GSIS act, UUG fidelity)
COC(=O)C1=C(C)N(Cc2cccc(C(F)(F)F)c2)C(=NCc2ccc(OC)cc2)NC1c1cccc(F)c1 (stereo not drawn)	INS-1E GSIS act 83.6 (no result: PDI turbidity, UUG fidelity)
COC(=O)C1=C(C)N(Cc2cccc(C(F)(F)F)c2)C(=NCc2ccc(OC)cc2)NC1c1ccc(F)cc1 (stereo not drawn)	INS-1E GSIS act 284.6 (no result: PDI turbidity, UUG fidelity)
CC(C)CC#Cc1ccc([C@H]2[C@H]3CN(C(=O)Nc4ccc(F)cc4)CC(=O)N3[C@H]2CO)cc1	none (no result: Rev-erbA mod, SMARCA2 act, PDI turbidity, UUG fidelity)
COc1ccc(C(=O)O/N=C(\N)c2ccc(OC)c(OC)c2)cc1	INS-1E GSIS act 44.8
Cc1ccc(/C(N)=N/OC(=O)c2ccc(F)cc2)cc1	SMARCA2 act 7.8 (no result: ERp5 inh)
COc1ccc(C(=O)O/N=C(\N)c2ccc(OC)c(OC)c2)c(OC)c1	none (no result: Rev-erbA mod, ERp5 inh, SMARCA2 act, INS-1E GSIS act)
C[C@@H]1CN([C@@H](C)CO)S(=O)(=O)c2ccc(-c3cncnc3)cc2O[C@@H]1CN(C)C(=O)c1ccc2c(c1)OCO2	none (no result: Rev-erbA mod, SMARCA2 act, PDI turbidity)
COc1ccc(CN(C)C[C@@H]2Oc3ccc(NS(=O)(=O)c4ccccc4)cc3C(=O)N([C@H](C)CO)C[C@H]2C)cc1	none (no result: Rev-erbA mod, SMARCA2 act, PDI turbidity)
CCCNC(=O)N[C@H]1CC[C@H](CCn2cc(C3CCCCC3)nn2)O[C@@H]1CO	none (no result: Rev-erbA mod, SMARCA2 act, PDI turbidity)
Cc1c2oc3c(C)ccc(C(=O)OC(C)C4NC(=O)C(C(C)C)N(C)C(=O)CN(C)C(=O)C5CCCN5C(=O)C(C(C)C)NC4=O)c3nc-2c(C(=O)OC(C)C2NC(=O)C(C(C)C)N(C)C(=O)CN(C)C(=O)C3CCCN3C(=O)C(C(C)C)NC2=O)c(N)c1=O (stereo not drawn)	none (no result: ERp5 inh, SMARCA2 act, PDI turbidity, INS-1E GSIS act, UUG fidelity)
C=CCNc1nc(Cl)nc(NCc2ccco2)n1	none
C=CCNc1nc(NCc2ccco2)nc(OCC)n1	INS-1E GSIS act 58.1 (no result: ERp5 inh)
OC[C@H]1[C@@H](c2ccc(C#CC3CC3)cc2)[C@@H]2CN(CCC(F)(F)F)CCCCN12	none (no result: Rev-erbA mod, ERp5 inh, SMARCA2 act, PDI turbidity, INS-1E GSIS act)
O=c1c(C(c2ccccc2)c2c(O)sc3ccccc3c2=O)c(O)sc2ccccc12	INS-1E GSIS act 55.7 (no result: ERp5 inh)
Cc1cc2sc3ccccc3c(=O)c2c(C)c1O	none (no result: UUG fidelity)
COCCNC(=O)C[C@@H]1C[C@@H]2c3cc(NC(=O)NC4CCCC4)ccc3O[C@@H]2[C@H](CO)O1	none (no result: Rev-erbA mod, SMARCA2 act, PDI turbidity)
CCCNC(=O)C[C@@H]1C[C@H]2c3cc(NC(=O)CC4CC4)ccc3O[C@H]2[C@H](CO)O1	ERp5 inh 61.6, UUG fidelity 138.8 (no result: Rev-erbA mod, SMARCA2 act, PDI turbidity)
COCCNC(=O)C[C@@H]1C[C@H]2c3cc(NC(=O)NC4CCCC4)ccc3O[C@H]2[C@@H](CO)O1	ERp5 inh 81.7 (no result: Rev-erbA mod, SMARCA2 act, PDI turbidity)
